Biological target: Interleukin-1 receptor-associated kinase 4 (Homo sapiens, UniProt Q9NWZ3)
Experiment: Binding affinity to IRAK4 (unknown origin) by kinomescan competition binding assay

By UniProt entry, the sequences of proteins in these tests, tags left out.
UniProt Q9NWZ3, whole entry: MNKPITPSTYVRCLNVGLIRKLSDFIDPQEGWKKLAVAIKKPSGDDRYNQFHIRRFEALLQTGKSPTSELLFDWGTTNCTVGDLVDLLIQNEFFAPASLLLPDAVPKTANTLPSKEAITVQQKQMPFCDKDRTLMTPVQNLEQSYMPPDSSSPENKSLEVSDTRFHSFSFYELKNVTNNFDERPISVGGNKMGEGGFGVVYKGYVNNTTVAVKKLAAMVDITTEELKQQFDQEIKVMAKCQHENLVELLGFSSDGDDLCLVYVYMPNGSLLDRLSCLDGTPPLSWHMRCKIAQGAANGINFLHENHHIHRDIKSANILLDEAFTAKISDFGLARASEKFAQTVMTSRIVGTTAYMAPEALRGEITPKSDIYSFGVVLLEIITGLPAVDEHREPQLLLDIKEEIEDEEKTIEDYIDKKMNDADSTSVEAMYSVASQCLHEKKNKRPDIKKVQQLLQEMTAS

## Cn1cc(-c2cccc(NC(=O)c3cc4c(nc3O[C@H]3C[C@@H](O)C3)OC(C)(C)C4)n2)cn1
  Kd: 0.35 nM
